Test results from article PMC9359912, “Pathogenic bacteria remodel central metabolic enzyme to build a cyclopropanol warhead” (Nature Chemistry, 2022).

Test system: C[S+](C)CC[C@@H](O)[C@@H](O)C(=O)[O-]
Test: purified protein
Conditions: pH 7.5; 30.0 °C

Substance: BurG (Burkholderia thailandensis E264)
- Km: 110 ± 20 µM
